Data set [1] can be described thus: Solubility and stability at 10 mg/mL, one week at 4° C. (visual, SEC-HPLC, RP-HPLC). In kind it is physicochemical. As to conditions: one week 4° C. (Size exclusion chromatography separates by hydrodynamic size, large species first.)
Data set [2] is described as follows: Pharmacokinetics in Cynomolgus monkeys. The data set is classed as in vivo. The following applies: cynomolgus monkey, plasma; male Cynomolgus monkeys, IV 50 nmol/kg, mean n=2.
For data set [3] the following is noted: T7Nm (and T7 for combinations), 4° C. and 40° C., four weeks.

For the molecule `CC(C)C[C@H](NC(=O)[C@H](Cc1c[nH]c2ccccc12)NC(=O)[C@H](CCC(=O)O)NC(=O)[C@@H](NC(=O)[C@H](Cc1ccccc1)NC(=O)[C@H](CCC(=O)O)NC(=O)[C@H](CCCCNC(=O)COCCOCCNC(=O)COCCOCCNC(=O)CC[C@H](NC(=O)CC[C@H](NC(=O)CCCCCCCCCCCCCCCCC(=O)O)C(=O)O)C(=O)O)NC(=O)[C@H](C)NC(=O)[C@H](CCCCN)NC(=O)[C@H](CCCCN)NC(=O)C(C)(C)NC(=O)[C@H](CC(=O)O)NC(=O)[C@H](CC(C)C)NC(=O)[C@H](Cc1ccc(O)cc1)NC(=O)[C@H](CCCCN)NC(=O)[C@H](CO)NC(=O)[C@H](Cc1ccc(O)cc1)NC(=O)[C@H](CC(=O)O)NC(=O)[C@H](CO)NC(=O)[C@H](CC(C)C)NC(=O)[C@H](Cc1ccccc1)NC(=O)[C@@H](NC(=O)CNC(=O)[C@H](CCC(N)=O)NC(=O)C(C)(C)NC(=O)[C@@H](N)Cc1ccc(O)cc1)[C@@H](C)O)C(C)C)C(=O)N[C@@H](CC(C)C)C(=O)N[C@@H](CCC(=O)O)C(=O)N[C@H](C(=O)NCC(=O)N1CCC[C@H]1C(=O)N[C@@H](CO)C(=O)N[C@@H](CO)C(=O)NCC(=O)N[C@@H](C)C(=O)N1CCC[C@H]1C(=O)N1CCC[C@H]1C(=O)N1CCC[C@H]1C(=O)N[C@@H](CO)C(N)=O)[C@@H](C)O` [Example 3], the “Δ % HMW Peak” value in data set [1] (C6N) is recorded as −0.01%; in data set [1] (C7N) it was 0.16%; in data set [1] (H6.5N), −0.03%; in data set [1] (H7.5N), −0.09%. Besides, the “Δ % Main Peak” value in data set [1] (C6N) is given as 0.08%; in data set [1] (C7N), −0.18%; in data set [1] (H6.5N), −0.58%.

What is called clearance is the volume of plasma or blood freed of the substance per unit of time. With `CC(C)C[C@H](NC(=O)[C@H](Cc1c[nH]c2ccccc12)NC(=O)[C@H](CCC(=O)O)NC(=O)[C@@H](NC(=O)[C@H](Cc1ccccc1)NC(=O)[C@H](CCC(=O)O)NC(=O)[C@H](CCCCNC(=O)COCCOCCNC(=O)COCCOCCNC(=O)CC[C@H](NC(=O)CC[C@H](NC(=O)CCCCCCCCCCCCCCCCC(=O)O)C(=O)O)C(=O)O)NC(=O)[C@H](C)NC(=O)[C@H](CCCCN)NC(=O)[C@H](CCCCN)NC(=O)C(C)(C)NC(=O)[C@H](CC(=O)O)NC(=O)[C@H](CC(C)C)NC(=O)[C@H](Cc1ccc(O)cc1)NC(=O)[C@H](CCCCN)NC(=O)[C@H](CO)NC(=O)[C@H](Cc1ccc(O)cc1)NC(=O)[C@H](CC(=O)O)NC(=O)[C@H](CO)NC(=O)[C@@H](NC(=O)[C@H](Cc1ccccc1)NC(=O)[C@@H](NC(=O)CNC(=O)[C@H](CCC(N)=O)NC(=O)C(C)(C)NC(=O)[C@@H](N)Cc1ccc(O)cc1)[C@@H](C)O)[C@@H](C)O)C(C)C)C(=O)N[C@@H](CC(C)C)C(=O)N[C@@H](CCC(=O)O)C(=O)N[C@H](C(=O)NCC(=O)N1CCC[C@H]1C(=O)N[C@@H](CO)C(=O)N[C@@H](CO)C(=O)NCC(=O)N[C@@H](C)C(=O)N1CCC[C@H]1C(=O)N1CCC[C@H]1C(=O)N1CCC[C@H]1C(=O)N[C@@H](CO)C(N)=O)[C@@H](C)O` [Example 1], the C0 in data set [2] is 1180 nM. The clearance in data set [2] is 1.36 mL/h/kg. For the same molecule, the “Δ % HMW Peak” value in data set [1] (C6N) is on record as 0.13%; in data set [1] (C7N), 0%; in data set [1] (H6.5N), −0.02%; in data set [1] (H7.5N) it was 0.35%. The “Δ % Main Peak” value in data set [1] (C6N) is −0.02%; in data set [1] (C7N), 0.26%; in data set [1] (H6.5N), −0.39%. Moreover, in data set [3], the “Sites of degradation by LC-MS” value is “No major sites of degradation are identified”.

As to `CC(C)C[C@H](NC(=O)[C@H](Cc1c[nH]c2ccccc12)NC(=O)[C@H](CCC(=O)O)NC(=O)[C@@H](NC(=O)[C@H](Cc1ccccc1)NC(=O)[C@H](CCC(=O)O)NC(=O)[C@H](CCCCNC(=O)COCCOCCNC(=O)COCCOCCNC(=O)CC[C@H](NC(=O)CC[C@H](NC(=O)CCCCCCCCCCCCCCCCC(=O)O)C(=O)O)C(=O)O)NC(=O)[C@H](C)NC(=O)[C@H](CCCCN)NC(=O)[C@H](CCCCN)NC(=O)C(C)(C)NC(=O)[C@H](CC(=O)O)NC(=O)[C@H](CC(C)C)NC(=O)[C@H](Cc1ccc(O)cc1)NC(=O)[C@H](CCCCN)NC(=O)[C@H](CO)NC(=O)[C@H](Cc1ccc(O)cc1)NC(=O)[C@H](CC(=O)O)NC(=O)[C@H](CO)NC(=O)[C@@H](NC(=O)[C@H](Cc1ccccc1)NC(=O)[C@@H](NC(=O)CNC(=O)[C@H](CCC(N)=O)NC(=O)C(C)(C)NC(=O)[C@@H](N)Cc1ccc(O)cc1)[C@@H](C)O)[C@@H](C)O)C(C)C)C(=O)N[C@@H](CC(C)C)C(=O)N[C@@H](CCC(=O)O)C(=O)N[C@H](C(=O)NCC(=O)N1CCC[C@H]1C(=O)N[C@@H](CO)C(=O)N[C@@H](CO)C(=O)NCC(N)=O)[C@@H](C)O` [Example 4], the “Δ % HMW Peak” value is recorded as 0.64% in data set [1] (C6N), 0.26% in data set [1] (C7N), 0.35% in data set [1] (H6.5N) and 0.44% in data set [1] (H7.5N). Also, the “Δ % Main Peak” value in data set [1] (C6N) is recorded as −3.42%; in data set [1] (C7N) it was −1.19%; in data set [1] (H6.5N) it was −2.88%; in data set [1] (H7.5N) it was −0.79%.

As to `CC(C)C[C@H](NC(=O)[C@H](Cc1c[nH]c2ccccc12)NC(=O)[C@H](C)NC(=O)[C@@H](NC(=O)[C@H](Cc1ccccc1)NC(=O)[C@H](CCC(=O)O)NC(=O)[C@H](CCCCNC(=O)COCCOCCNC(=O)COCCOCCNC(=O)CC[C@H](NC(=O)CCCCCCCCCCCCCCCCC(=O)O)C(=O)O)NC(=O)[C@H](C)NC(=O)[C@H](CCCCN)NC(=O)[C@H](CCCCN)NC(=O)C(C)(C)NC(=O)[C@H](CC(=O)O)NC(=O)[C@H](CC(C)C)NC(=O)[C@H](Cc1ccc(O)cc1)NC(=O)[C@H](CCCCN)NC(=O)[C@H](CO)NC(=O)[C@H](Cc1ccc(O)cc1)NC(=O)[C@H](CC(=O)O)NC(=O)[C@H](CO)NC(=O)[C@@H](NC(=O)[C@H](Cc1ccccc1)NC(=O)[C@@H](NC(=O)CNC(=O)[C@H](CCC(N)=O)NC(=O)C(C)(C)NC(=O)[C@@H](N)Cc1ccc(O)cc1)[C@@H](C)O)[C@@H](C)O)C(C)C)C(=O)N[C@@H](CC(C)C)C(=O)N[C@@H](CCC(=O)O)C(=O)N[C@@H](CCC(=O)O)C(=O)O` [Example 6], the “Δ % HMW Peak” value in data set [1] (C6N) is on record as −0.03%; in data set [1] (C7N) it was −0.26%; in data set [1] (H6.5N), 0.11%; in data set [1] (H7.5N) it was 0.14%. The “Δ % Main Peak” value in data set [1] (C6N) was −0.98%; in data set [1] (C7N), 0.36%; in data set [1] (H6.5N) it was −1.17%; in data set [1] (H7.5N), −1.68%.

As to `CC(C)C[C@H](NC(=O)[C@H](Cc1c[nH]c2ccccc12)NC(=O)[C@H](CCC(=O)O)NC(=O)[C@@H](NC(=O)[C@H](Cc1ccccc1)NC(=O)[C@H](CCC(=O)O)NC(=O)[C@H](CCCCNC(=O)COCCOCCNC(=O)COCCOCCNC(=O)CC[C@H](NC(=O)CC[C@H](NC(=O)CCCCCCCCCCCCCCCCCCC(=O)O)C(=O)O)C(=O)O)NC(=O)[C@H](C)NC(=O)[C@H](CCCCN)NC(=O)[C@H](CCCCN)NC(=O)C(C)(C)NC(=O)[C@H](CC(=O)O)NC(=O)[C@H](CC(C)C)NC(=O)[C@H](Cc1ccc(O)cc1)NC(=O)[C@H](CCCCN)NC(=O)[C@H](CO)NC(=O)[C@H](Cc1ccc(O)cc1)NC(=O)[C@H](CC(=O)O)NC(=O)[C@H](CO)NC(=O)[C@@H](NC(=O)[C@H](Cc1ccccc1)NC(=O)[C@@H](NC(=O)CNC(=O)[C@H](CCC(N)=O)NC(=O)C(C)(C)NC(=O)[C@@H](N)Cc1ccc(O)cc1)[C@@H](C)O)[C@@H](C)O)C(C)C)C(=O)N[C@@H](CC(C)C)C(=O)N[C@@H](CCC(=O)O)C(=O)N[C@H](C(=O)NCC(=O)N1CCC[C@H]1C(=O)N[C@@H](CO)C(=O)N[C@@H](CO)C(=O)NCC(=O)N[C@@H](C)C(=O)N1CCC[C@H]1C(=O)N1CCC[C@H]1C(=O)N1CCC[C@H]1C(=O)N[C@@H](CO)C(N)=O)[C@@H](C)O` [Example 2], the “Δ % HMW Peak” value is recorded as −0.03% in data set [1] (C6N), −0.06% in data set [1] (C7N), 0.06% in data set [1] (H6.5N) and −0.15% in data set [1] (H7.5N). The “Δ % Main Peak” value is reported as 0.08% in data set [1] (C6N), −0.26% in data set [1] (C7N) and −0.87% in data set [1] (H7.5N).

Source of the values: patent publication US9884093B2 (Eli Lilly and Company, priority 2015, dated 2018).
